Molecular target: Mu-type opioid receptor (Homo sapiens, UniProt P35372)

Amino acid sequences for entries named in this document (tags omitted).
UniProt P35372, whole entry: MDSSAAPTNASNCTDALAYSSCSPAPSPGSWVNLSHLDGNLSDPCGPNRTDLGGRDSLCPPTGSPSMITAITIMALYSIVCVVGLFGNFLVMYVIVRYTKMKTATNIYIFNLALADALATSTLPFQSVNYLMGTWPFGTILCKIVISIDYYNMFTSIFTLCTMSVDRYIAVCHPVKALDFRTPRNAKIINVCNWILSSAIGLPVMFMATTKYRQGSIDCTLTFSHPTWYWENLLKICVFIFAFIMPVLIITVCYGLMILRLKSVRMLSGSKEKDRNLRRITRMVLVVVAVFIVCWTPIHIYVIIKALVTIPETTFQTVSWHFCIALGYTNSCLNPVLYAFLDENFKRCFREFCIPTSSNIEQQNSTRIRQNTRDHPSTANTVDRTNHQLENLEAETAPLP

Compound: Oc1ccc2c(c1)[C@@]13CCCC[C@H]1C(C2)N(CC1CCC1)CC3 [MCL-101]
- Ki: 0.23 µM

From BindingDB's records for doi:10.1124/jpet.105.084343 (University of Rochester, 2005)
